Tests used:
Settings in all cases: in vivo
[1] = test system: Rattus norvegicus; assay: Toxicity in Wistar rat assessed as labored breathing at 32 umol/kg, iv
[2] = test system: Rattus norvegicus; assay: Toxicity in Wistar rat assessed as sensitivity to light at 16 umol/kg, iv
[3] = test system: Rattus norvegicus; assay: Toxicity in Wistar rat assessed as lethality at 32 umol/kg, iv

Structure (SMILES) | Activity [1] | Activity [2] | Activity [3]
COc1ccc(CN(CC(=O)NCc2ccccc2)C(=O)CCCCCn2ccnc2/C=N/O)cc1 | Non-Toxic | Non-Toxic | –
C[n+]1ccccc1/C=N/O.[Cl-] | Non-Toxic | Non-Toxic | Non-Toxic
COc1ccc(CN(CC(=O)NCc2ccccc2)C(=O)CCCCCn2cc[n+](C)c2/C=N\O)cc1.[I-] | Toxic | Toxic | –
CCCCN(CC(=O)NCc1ccccc1)C(=O)CCCCCn1ccnc1/C=N/O | Non-Toxic | Non-Toxic | –
COc1ccc(CN(CC(=O)NC(C)C)C(=O)CCCCCn2cc[n+](C)c2/C=N\O)cc1.[I-] | Non-Toxic | Non-Toxic | –

— ChEMBL document CHEMBL4024757, “Application of the Ugi Multicomponent Reaction in the Synthesis of Reactivators of Nerve Agent Inhibited Acetylcholinesterase” (2017)
